Results published in doi:10.1101/2023.06.24.546380.

Protein sequences, listed by entry. Tags and fused reporters are not part of them. Lines headed by an entry give the natural chain unless they say otherwise; changes in a name come on top.
UniProt Q07157: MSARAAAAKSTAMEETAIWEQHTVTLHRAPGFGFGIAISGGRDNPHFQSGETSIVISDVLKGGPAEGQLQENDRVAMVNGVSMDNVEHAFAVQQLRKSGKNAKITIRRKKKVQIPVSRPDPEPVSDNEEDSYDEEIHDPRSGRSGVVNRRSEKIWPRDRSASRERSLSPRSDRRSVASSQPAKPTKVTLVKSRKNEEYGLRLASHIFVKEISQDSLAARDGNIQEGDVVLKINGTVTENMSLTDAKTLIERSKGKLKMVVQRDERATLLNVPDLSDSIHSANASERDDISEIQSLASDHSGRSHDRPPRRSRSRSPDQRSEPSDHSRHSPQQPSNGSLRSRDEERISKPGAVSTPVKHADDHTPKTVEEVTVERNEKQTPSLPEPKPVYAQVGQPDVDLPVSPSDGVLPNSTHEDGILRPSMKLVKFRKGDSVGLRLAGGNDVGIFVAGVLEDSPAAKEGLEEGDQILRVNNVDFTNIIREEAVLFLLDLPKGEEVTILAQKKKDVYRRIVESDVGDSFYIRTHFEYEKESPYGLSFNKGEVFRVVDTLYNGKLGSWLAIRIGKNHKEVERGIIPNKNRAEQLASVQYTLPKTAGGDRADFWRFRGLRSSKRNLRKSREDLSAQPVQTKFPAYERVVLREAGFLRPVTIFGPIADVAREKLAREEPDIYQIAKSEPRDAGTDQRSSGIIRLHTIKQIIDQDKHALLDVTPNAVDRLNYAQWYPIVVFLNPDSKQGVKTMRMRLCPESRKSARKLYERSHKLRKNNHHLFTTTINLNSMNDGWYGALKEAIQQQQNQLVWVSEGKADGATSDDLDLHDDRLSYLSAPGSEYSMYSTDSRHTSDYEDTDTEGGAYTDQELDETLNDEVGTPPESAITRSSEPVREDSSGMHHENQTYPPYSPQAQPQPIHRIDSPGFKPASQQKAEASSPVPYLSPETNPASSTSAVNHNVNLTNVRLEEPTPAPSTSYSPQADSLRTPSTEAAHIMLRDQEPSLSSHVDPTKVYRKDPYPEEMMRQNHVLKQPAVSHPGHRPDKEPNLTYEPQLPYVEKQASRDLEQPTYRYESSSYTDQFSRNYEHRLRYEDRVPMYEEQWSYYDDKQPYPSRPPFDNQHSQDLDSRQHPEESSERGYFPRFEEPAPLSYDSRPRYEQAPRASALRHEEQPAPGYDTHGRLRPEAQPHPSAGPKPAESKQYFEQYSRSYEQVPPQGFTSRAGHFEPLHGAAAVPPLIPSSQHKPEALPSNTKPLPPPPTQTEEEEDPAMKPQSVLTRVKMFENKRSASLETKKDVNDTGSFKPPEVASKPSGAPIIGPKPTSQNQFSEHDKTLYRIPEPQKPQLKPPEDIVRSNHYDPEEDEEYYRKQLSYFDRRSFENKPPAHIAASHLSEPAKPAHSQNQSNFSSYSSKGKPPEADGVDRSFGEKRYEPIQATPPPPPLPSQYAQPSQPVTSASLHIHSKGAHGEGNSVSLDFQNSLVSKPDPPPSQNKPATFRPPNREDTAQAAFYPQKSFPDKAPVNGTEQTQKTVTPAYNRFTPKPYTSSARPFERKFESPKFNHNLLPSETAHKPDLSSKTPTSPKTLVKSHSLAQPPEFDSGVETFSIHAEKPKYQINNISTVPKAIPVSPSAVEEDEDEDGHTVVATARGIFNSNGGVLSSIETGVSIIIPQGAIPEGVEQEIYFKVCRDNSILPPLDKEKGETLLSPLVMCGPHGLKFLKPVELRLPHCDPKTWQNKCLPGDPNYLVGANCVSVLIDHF

Target: ZO1 mutant lacking the actin-binding-domain (UniProt Q07157)
Test: partitioning of actin into ZO1 surface condensates on supported lipid bilayers

fold reduction of enrichment against ZO1-WT condensates: 2 fold reduced
Substance: G-actin-Alexa Fluor 647 (from UniProt P68135 1-377) (natural protein)
